Source: US9150632B2 (Indiana University Research and Technology Corporation, priority 2009, dated 2015)
Read-outs that look alike come from different tables or passages of the source.

Chains of the proteins cited; added tags and fusions are not shown. Residues count along the entry.
UniProt P47871, 26-477: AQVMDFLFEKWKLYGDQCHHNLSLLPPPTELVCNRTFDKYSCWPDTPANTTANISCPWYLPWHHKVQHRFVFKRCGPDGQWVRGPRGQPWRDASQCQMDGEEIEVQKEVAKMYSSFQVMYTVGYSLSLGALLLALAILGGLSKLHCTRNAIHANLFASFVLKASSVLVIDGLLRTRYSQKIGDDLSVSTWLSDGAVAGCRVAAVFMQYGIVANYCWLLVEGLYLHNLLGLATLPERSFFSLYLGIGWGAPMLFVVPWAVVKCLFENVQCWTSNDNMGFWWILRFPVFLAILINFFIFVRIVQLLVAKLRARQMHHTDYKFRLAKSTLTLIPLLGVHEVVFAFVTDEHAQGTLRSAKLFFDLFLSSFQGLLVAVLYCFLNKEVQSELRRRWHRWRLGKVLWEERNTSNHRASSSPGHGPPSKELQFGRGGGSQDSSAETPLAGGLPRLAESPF
UniProt P43220, 24-463, species assumed: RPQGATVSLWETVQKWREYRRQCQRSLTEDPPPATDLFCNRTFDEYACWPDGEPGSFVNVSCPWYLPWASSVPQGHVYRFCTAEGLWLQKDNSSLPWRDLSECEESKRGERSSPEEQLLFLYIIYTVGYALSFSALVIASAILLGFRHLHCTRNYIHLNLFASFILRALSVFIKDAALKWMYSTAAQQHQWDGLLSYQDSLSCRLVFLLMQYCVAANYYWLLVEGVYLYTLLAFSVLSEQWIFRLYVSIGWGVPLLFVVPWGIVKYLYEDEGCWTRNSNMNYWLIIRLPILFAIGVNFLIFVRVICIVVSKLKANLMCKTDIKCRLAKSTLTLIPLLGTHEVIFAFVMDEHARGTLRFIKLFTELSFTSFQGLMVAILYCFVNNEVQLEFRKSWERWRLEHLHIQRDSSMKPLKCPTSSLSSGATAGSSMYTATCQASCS

Tests used:
glucagon receptor = target: T1, glucagon receptor (Homo sapiens, UniProt P47871); assay: Functional assay-cAMP synthesis, luciferase reporter in HEK293 cells, glucagon receptor; assay type: cell-based; details: for % Activity of Glucagon: Table 21, relative to the native peptide; for Glucagon Receptor % relative activity: activity relative to the native hormone at the indicated receptor
T1 construct: expressed in transfected cells; host or cells: HEK293

GLP-1 receptor [1] = target: T2, GLP-1 receptor (Homo sapiens, UniProt P43220); details: for % Activity of GLP-1: Table 21, relative to the native peptide; for GLP-1 Receptor % relative activity: activity relative to the native hormone at the indicated receptor
GIP receptor = target: T3, GIP receptor (Homo sapiens, UniProt P48546); assay: Functional assay-cAMP synthesis, luciferase reporter in HEK293 cells, GIP receptor; assay type: cell-based; details: for GIP Receptor % relative activity: activity relative to the native hormone at the indicated receptor; for agonist activity at the GIP receptor: text on Table 34
T3 construct: expressed in transfected cells; host or cells: HEK293
T3 sequence (P48546 22-466): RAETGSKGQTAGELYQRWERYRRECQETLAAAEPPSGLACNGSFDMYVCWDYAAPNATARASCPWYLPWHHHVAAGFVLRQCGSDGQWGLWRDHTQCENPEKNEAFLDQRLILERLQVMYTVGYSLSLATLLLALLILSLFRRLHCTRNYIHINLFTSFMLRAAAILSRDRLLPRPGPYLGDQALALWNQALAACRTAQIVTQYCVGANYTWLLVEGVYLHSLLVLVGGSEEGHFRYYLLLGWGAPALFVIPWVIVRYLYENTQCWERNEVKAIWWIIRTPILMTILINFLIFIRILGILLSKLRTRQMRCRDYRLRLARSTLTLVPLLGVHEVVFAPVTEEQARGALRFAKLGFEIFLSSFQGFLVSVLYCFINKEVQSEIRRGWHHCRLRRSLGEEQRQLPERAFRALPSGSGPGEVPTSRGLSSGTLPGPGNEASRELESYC

[2] = Blood glucose and glucose tolerance test in DIO mice; assay type: in vivo; details: C57Bl/6 mice on diabetogenic diet, s.c. daily
Procedure: A saline solution comprising 25% (v/v) glucose was injected at a dose of 1.5 g/kg of body weight at the 0 min time point. Blood glucose levels were measured at the −15, 0, 15, 30, 60, and 120 min time points.
A saline solution comprising 25% (v/v) glucose was injected at a dose of 1.5 g/kg of body weight at the 0 min time point. Blood glucose levels were measured at the 0, 15, 30, 60, and 120 min time points.
(§1) Changes in body weight of and food intake by the mice were measured 0, 1, 3, 5, 7, 8, 10, 12, and 14 days after injection. Blood glucose levels of the mice were monitored throughout the 14 days. Glucose tolerance tests were performed by injecting a 25% glucose in saline solution 1 hour or 24 hours after administration of the acylated or pegylated peptide and measuring blood glucose levels at −60, 0, 15, 30, 60, or 120 min after the glucose injection.
For the determination of glucose tolerance, mice were subjected to 6 h of fasting and injected intraperitoneally (i.p.) with 2 g glucose/kg body wt (50% D-glucose (Sigma) in 0.9% saline) for the glucose tolerance test (GTT). Tail blood glucose levels (mg/dl) were measured by using a hand-held glucometer (TheraSense Freestyle) before (0 min) and at 15, 30, 60, 90, and 120 min after injection.

[3] = Body weight, body composition and food intake in diet-induced obesity (DIO) mice; assay type: in vivo
Procedure: […] 6 mice per group with initial average body weight of 44 g were tested. Body weight, body composition, food intake, and blood glucose levels were determined periodically.
Body weight was measured before injection and at 1, 3, 5, and 7 days post-injection.
as §1
The acylated glucagon analogs were as follows:
C57BI/6 mice were obtained from Jackson Laboratories and fed a diabetogenic diet from Research Diets, a high sucrose diet with 58% kcal from fat. Mice were single or group-housed on a 12:12-h light-dark cycle at 22° C. with free access to food and water. All studies were approved by and performed according to the guidelines of the Institutional Animal Care and Use Committee of the University of Cincinnati.
Whole body composition (fat and lean mass) was measured using NMR technology (EchoMRI, Houston, Tex.).
The peptides were administered daily for two weeks to 11 groups of 8 C57Bl/6 mice by subcutaneous injection at a dose of 10 or 30 nmol/kg. The initial average body weight of the mice was 51 g. The mice were 6 months old and had been on a diabetogenic diet for 4 months.
The peptides were then tested in vivo for their effects on body weight, food intake, blood glucose levels, and fat mass in eight-month old C57B1/6 mice that had been on a diabetogenic diet for 6 months. Eleven groups of eight mice were subcutaneously injected with 10 nmol/kg of peptide daily for one week.
Nine groups of 8 DIO mice (strain: C57B16 WT) were subcutaneously injected daily for 7 days with 10 nmol/kg of one of the peptides of Table 37. The average initial body weight of the mice was 57.6 g. The mice were approximately 10 months old and had been on a high fat diet for about 8 months.

GLP-1 receptor [4] = target: T2, GLP-1 receptor; assay: cell-based
[5] = Table 35, relative to the native hormone
[6] = Table 36, relative to the native hormone
[7] = C57Bl/6 mice on diabetogenic diet, s.c. 10 nmol/kg daily for one week

Row | Compound | % Activity of Glucagon (glucagon receptor) | % Activity of GLP-1 (GLP-1 receptor [1]) | GIP Receptor % relative activity (GIP receptor) | agonist activity at the GIP receptor (GIP receptor) | EC50 (glucagon receptor) | Glucagon Receptor % relative activity (glucagon receptor) | GLP-1 Receptor % relative activity (GLP-1 receptor [1]) | also measured
1 | CCCCCCCCCCCCCC(=O)NCCCC[C@H](NC(=O)[C@H](CC(=O)O)NC(=O)[C@H](CO)NC(=O)[C@@H](NC(=O)[C@H](Cc1ccccc1)NC(=O)[C@@H](NC(=O)CNC(=O)[C@H](CCC(N)=O)NC(=O)[C@H](CO)NC(=O)C(C)(C)c1cnc[nH]1)[C@@H](C)O)[C@@H](C)O)C(=O)N[C@@H](CO)C(=O)N[C@@H](CCCCN)C(=O)N[C@@H](Cc1ccc(O)cc1)C(=O)N[C@@H](CC(C)C)C(=O)N[C@@H](CC(=O)O)C(=O)N[C@H]1CCC(=O)NCCCC[C@@H](C(=O)N[C@@H](CC(=O)O)C(=O)N[C@@H](Cc2ccccc2)C(=O)N[C@H](C(=O)N[C@@H](CCC(N)=O)C(=O)N[C@@H](Cc2c[nH]c3ccccc23)C(=O)N[C@@H](CC(C)C)C(=O)N[C@@H](CCSC)C(=O)N[C@@H](CC(N)=O)C(=O)N[C@H](C(N)=O)[C@@H](C)O)C(C)C)NC(=O)[C@H](C)NC(=O)[C@H](CCCNC(=N)N)NC(=O)[C@H](CCCNC(=N)N)NC1=O [DMIA1, K10(C14), [E16/K20]-Gluc Amide] | 203.7% | 30% | – | – | – | – | – | –
2 | CCCCCCCCCCCCCCCC(=O)NCCCC[C@H](NC(=O)[C@H](CC(=O)O)NC(=O)[C@H](CO)NC(=O)[C@@H](NC(=O)[C@H](Cc1ccccc1)NC(=O)[C@@H](NC(=O)CNC(=O)[C@H](CCC(N)=O)NC(=O)[C@H](CO)NC(=O)C(C)(C)c1c[nH]cn1)[C@@H](C)O)[C@@H](C)O)C(=O)N[C@@H](CO)C(=O)N[C@@H](CCCCN)C(=O)N[C@@H](Cc1ccc(O)cc1)C(=O)N[C@@H](CC(C)C)C(=O)N[C@@H](CC(=O)O)C(=O)N[C@H]1CCC(=O)NCCCC[C@@H](C(=O)N[C@@H](CC(=O)O)C(=O)N[C@@H](Cc2ccccc2)C(=O)N[C@H](C(=O)N[C@@H](CCC(N)=O)C(=O)N[C@@H](Cc2c[nH]c3ccccc23)C(=O)N[C@@H](CC(C)C)C(=O)N[C@@H](CCSC)C(=O)N[C@@H](CC(N)=O)C(=O)N[C@H](C(N)=O)[C@@H](C)O)C(C)C)NC(=O)[C@H](C)NC(=O)[C@H](CCCNC(=N)N)NC(=O)[C@H](CCCNC(=N)N)NC1=O [DMIA1, K10(C16), [E16/K20]-Gluc Amide] | 392% | 100% | – | – | – | – | – | –
3 | CCCCCCCCCCCCCCCCCC(=O)NCCCC[C@H](NC(=O)[C@H](CC(=O)O)NC(=O)[C@H](CO)NC(=O)[C@@H](NC(=O)[C@H](Cc1ccccc1)NC(=O)[C@@H](NC(=O)CNC(=O)[C@H](CCC(N)=O)NC(=O)[C@H](CO)NC(=O)C(C)(C)c1c[nH]cn1)[C@@H](C)O)[C@@H](C)O)C(=O)N[C@@H](CO)C(=O)N[C@@H](CCCCN)C(=O)N[C@@H](Cc1ccc(O)cc1)C(=O)N[C@@H](CC(C)C)C(=O)N[C@@H](CC(=O)O)C(=O)N[C@H]1CCC(=O)NCCCC[C@@H](C(=O)N[C@@H](CC(=O)O)C(=O)N[C@@H](Cc2ccccc2)C(=O)N[C@H](C(=O)N[C@@H](CCC(N)=O)C(=O)N[C@@H](Cc2c[nH]c3ccccc23)C(=O)N[C@@H](CC(C)C)C(=O)N[C@@H](CCSC)C(=O)N[C@@H](CC(N)=O)C(=O)N[C@H](C(N)=O)[C@@H](C)O)C(C)C)NC(=O)[C@H](C)NC(=O)[C@H](CCCNC(=N)N)NC(=O)[C@H](CCCNC(=N)N)NC1=O [DMIA1, K10(C18), [E16/K20]-Gluc Amide] | 42.3% | 136% | – | – | – | – | – | –
4 | CCCCCCCCCCCCCC(=O)NCCCC[C@H](NC(=O)[C@H](CO)NC(=O)[C@@H]1CCCN1C(=O)[C@@H]1CCCN1C(=O)[C@@H]1CCCN1C(=O)[C@H](C)NC(=O)CNC(=O)[C@H](CO)NC(=O)[C@H](CO)NC(=O)[C@@H]1CCCN1C(=O)CNC(=O)CNC(=O)[C@H](CC(N)=O)NC(=O)[C@H](CCSC)NC(=O)[C@H](CC(C)C)NC(=O)[C@H](Cc1c[nH]c2ccccc12)NC(=O)[C@H](CS)NC(=O)[C@@H](NC(=O)[C@H](Cc1ccccc1)NC(=O)[C@H](CCC(=O)O)NC(=O)[C@H](CCCCN)NC(=O)[C@H](C)NC(=O)[C@H](C)NC(=O)[C@H](CCC(N)=O)NC(=O)[C@H](CCC(=O)O)NC(=O)[C@H](CC(=O)O)NC(=O)[C@H](CC(C)C)NC(=O)[C@H](Cc1ccc(O)cc1)NC(=O)[C@H](CCCCN)NC(=O)[C@H](CO)NC(=O)[C@H](Cc1ccc(O)cc1)NC(=O)[C@H](CC(=O)O)NC(=O)[C@H](CO)NC(=O)[C@@H](NC(=O)[C@H](Cc1ccccc1)NC(=O)[C@@H](NC(=O)CNC(=O)[C@H](CCC(N)=O)NC(=O)C(C)(C)NC(=O)[C@@H](N)Cc1c[nH]cn1)[C@@H](C)O)[C@@H](C)O)[C@@H](C)CC)C(N)=O [mt-345] | – | – | 4.99% | exceptionally potent activity | 0.0183 nM | 192.90% | 152.78% | % Relative activity at the Receptor for GIP (GIP receptor; [5]): 5%; blood glucose levels on Day 7 [2]: total decrease in blood glucose levels; % Relative activity at the Receptor for Glucagon (glucagon receptor; [5]): 193%; % Relative activity at the Receptor for GLP-1 (GLP-1 receptor [1]; [5]): 153%; food intake ([3]; C57Bl/6 mice on diabetogenic diet, s.c. daily for two weeks): lowest food intake; total change (decrease) in body weight ([3]; C57Bl/6 mice on diabetogenic diet, s.c. daily for two weeks, 10 nmol/kg, Day 14): around 20%
5 | CCCCCCCCCCCCCCCC(=O)NCCCC[C@H](NC(=O)[C@H](CO)NC(=O)[C@@H]1CCCN1C(=O)[C@@H]1CCCN1C(=O)[C@@H]1CCCN1C(=O)[C@H](C)NC(=O)CNC(=O)[C@H](CO)NC(=O)[C@H](CO)NC(=O)[C@@H]1CCCN1C(=O)CNC(=O)CNC(=O)[C@H](CC(N)=O)NC(=O)[C@H](CCSC)NC(=O)[C@H](CC(C)C)NC(=O)[C@H](Cc1c[nH]c2ccccc12)NC(=O)[C@H](C)NC(=O)[C@@H](NC(=O)[C@H](Cc1ccccc1)NC(=O)[C@H](CCC(=O)O)NC(=O)[C@H](CCCCN)NC(=O)[C@H](C)NC(=O)[C@H](C)NC(=O)[C@H](CCC(N)=O)NC(=O)[C@H](CCC(=O)O)NC(=O)[C@H](CC(=O)O)NC(=O)[C@H](CC(C)C)NC(=O)[C@H](Cc1ccc(O)cc1)NC(=O)[C@H](CCCCN)NC(=O)[C@H](CO)NC(=O)[C@H](Cc1ccc(O)cc1)NC(=O)[C@H](CC(=O)O)NC(=O)[C@H](CO)NC(=O)[C@@H](NC(=O)[C@H](Cc1ccccc1)NC(=O)[C@@H](NC(=O)CNC(=O)[C@H](CCC(N)=O)NC(=O)C(C)(C)NC(=O)[C@@H](N)Cc1c[nH]cn1)[C@@H](C)O)[C@@H](C)O)[C@@H](C)CC)C(N)=O [mt-364] | – | – | 15.66% | exceptionally potent activity | 0.0183 nM | 349.97% | 354.68% | EC50 (GLP-1 receptor [4]): 0.007 nM; % Relative activity at the Receptor for GIP (GIP receptor; [6]): 15.66%; % Relative activity at the Receptor for GIP (GIP receptor; Table 37): 15.66%; % Relative activity at the Receptor for Glucagon (glucagon receptor; [6]): 349.97%; % Relative activity at the Receptor for Glucagon (glucagon receptor; Table 37): 349.97%; % Relative activity at the Receptor for GLP-1 (GLP-1 receptor [1]; [6]): 354.68%; % Relative activity at the Receptor for GLP-1 (GLP-1 receptor [1]; Table 37): 354.68%; decrease in body weight (weight loss) [3, 7]: greater than 15%; fat mass [3, 7]: less than the fat mass of mice injected with vehicle only; decrease in body weight on Day 7 ([3]; DIO mice, s.c. daily for 7 days, 10 nmol/kg): ~20%
